Tests used:
Assay in all cases: DiscoverX scanMAX binding assay
Settings in all cases: 1 μM
YSK4 = YSK4 (Homo sapiens, UniProt Q56UN5)
MYLK4 = MYLK4 (Homo sapiens, UniProt Q86YV6)
PIP5K1C = PIP5K1C (Homo sapiens, UniProt O60331)
RIPK5 = RIPK5 (Homo sapiens, UniProt Q6XUX3)
PIKfyve = PIKfyve (Homo sapiens, UniProt Q9Y2I7)
PRKD3 = PRKD3 (Homo sapiens, UniProt O94806)
MEK4 = MEK4 (Homo sapiens, UniProt P45985)

Sequences of proteins named here, by UniProt entry; tags and fusion partners are left off.
UniProt Q56UN5, whole entry: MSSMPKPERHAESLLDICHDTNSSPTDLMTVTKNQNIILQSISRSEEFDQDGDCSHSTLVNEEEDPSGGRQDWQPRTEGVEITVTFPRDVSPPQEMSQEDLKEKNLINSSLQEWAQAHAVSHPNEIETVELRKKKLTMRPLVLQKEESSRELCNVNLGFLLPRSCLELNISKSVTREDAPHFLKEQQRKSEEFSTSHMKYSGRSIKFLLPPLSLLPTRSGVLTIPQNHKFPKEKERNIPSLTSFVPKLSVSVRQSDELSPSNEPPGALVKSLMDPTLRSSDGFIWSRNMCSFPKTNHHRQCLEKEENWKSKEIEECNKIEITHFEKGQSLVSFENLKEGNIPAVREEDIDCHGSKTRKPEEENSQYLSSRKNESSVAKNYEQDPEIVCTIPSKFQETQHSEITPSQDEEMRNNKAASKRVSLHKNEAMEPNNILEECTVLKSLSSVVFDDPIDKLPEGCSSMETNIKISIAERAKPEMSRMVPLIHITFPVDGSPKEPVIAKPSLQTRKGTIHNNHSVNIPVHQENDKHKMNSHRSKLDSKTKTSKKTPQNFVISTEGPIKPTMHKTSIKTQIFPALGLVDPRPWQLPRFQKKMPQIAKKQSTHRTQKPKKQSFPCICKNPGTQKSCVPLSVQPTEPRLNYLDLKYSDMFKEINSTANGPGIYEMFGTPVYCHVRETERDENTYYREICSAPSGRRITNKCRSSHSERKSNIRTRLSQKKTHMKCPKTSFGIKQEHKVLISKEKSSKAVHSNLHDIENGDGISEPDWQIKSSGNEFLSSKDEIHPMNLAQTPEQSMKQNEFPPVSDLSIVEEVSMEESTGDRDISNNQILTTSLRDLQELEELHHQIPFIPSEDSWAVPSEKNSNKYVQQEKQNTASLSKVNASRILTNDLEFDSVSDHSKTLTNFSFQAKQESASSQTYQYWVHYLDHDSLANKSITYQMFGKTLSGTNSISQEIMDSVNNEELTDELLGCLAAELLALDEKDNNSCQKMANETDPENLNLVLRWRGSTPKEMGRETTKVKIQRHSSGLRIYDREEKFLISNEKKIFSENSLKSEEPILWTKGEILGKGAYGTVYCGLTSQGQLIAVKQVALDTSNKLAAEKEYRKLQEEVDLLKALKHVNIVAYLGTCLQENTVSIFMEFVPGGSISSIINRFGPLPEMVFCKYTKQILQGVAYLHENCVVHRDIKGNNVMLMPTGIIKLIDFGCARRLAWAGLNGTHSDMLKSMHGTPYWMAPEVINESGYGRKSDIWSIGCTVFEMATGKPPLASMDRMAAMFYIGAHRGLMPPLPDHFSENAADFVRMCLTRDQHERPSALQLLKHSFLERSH
UniProt Q86YV6, whole entry: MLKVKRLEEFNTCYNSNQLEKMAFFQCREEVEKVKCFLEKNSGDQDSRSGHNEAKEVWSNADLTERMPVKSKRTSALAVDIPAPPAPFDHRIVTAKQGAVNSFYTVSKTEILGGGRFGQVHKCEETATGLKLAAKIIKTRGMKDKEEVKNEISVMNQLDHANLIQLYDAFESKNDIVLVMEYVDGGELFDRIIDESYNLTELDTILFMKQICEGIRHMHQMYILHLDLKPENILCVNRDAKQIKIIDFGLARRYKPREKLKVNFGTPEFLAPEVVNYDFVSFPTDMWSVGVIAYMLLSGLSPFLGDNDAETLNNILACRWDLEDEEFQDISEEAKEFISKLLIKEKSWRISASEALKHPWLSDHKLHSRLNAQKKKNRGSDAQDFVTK
UniProt O60331, whole entry: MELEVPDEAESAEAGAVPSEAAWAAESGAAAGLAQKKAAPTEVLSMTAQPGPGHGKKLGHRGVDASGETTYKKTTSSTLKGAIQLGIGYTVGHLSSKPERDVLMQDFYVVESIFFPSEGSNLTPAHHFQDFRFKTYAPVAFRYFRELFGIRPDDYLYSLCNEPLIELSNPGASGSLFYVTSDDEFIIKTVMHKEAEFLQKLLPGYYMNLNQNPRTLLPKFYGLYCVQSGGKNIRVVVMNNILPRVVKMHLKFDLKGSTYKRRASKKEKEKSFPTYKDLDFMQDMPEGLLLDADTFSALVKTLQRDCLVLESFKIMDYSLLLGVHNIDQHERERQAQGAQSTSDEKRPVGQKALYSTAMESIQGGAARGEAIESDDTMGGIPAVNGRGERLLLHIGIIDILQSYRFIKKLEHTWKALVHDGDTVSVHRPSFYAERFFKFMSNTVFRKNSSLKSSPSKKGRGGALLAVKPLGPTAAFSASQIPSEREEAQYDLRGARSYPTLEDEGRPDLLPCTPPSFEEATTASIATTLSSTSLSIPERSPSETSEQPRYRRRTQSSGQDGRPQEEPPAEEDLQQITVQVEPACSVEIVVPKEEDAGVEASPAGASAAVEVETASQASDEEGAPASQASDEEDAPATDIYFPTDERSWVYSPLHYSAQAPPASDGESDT
UniProt Q6XUX3, whole entry: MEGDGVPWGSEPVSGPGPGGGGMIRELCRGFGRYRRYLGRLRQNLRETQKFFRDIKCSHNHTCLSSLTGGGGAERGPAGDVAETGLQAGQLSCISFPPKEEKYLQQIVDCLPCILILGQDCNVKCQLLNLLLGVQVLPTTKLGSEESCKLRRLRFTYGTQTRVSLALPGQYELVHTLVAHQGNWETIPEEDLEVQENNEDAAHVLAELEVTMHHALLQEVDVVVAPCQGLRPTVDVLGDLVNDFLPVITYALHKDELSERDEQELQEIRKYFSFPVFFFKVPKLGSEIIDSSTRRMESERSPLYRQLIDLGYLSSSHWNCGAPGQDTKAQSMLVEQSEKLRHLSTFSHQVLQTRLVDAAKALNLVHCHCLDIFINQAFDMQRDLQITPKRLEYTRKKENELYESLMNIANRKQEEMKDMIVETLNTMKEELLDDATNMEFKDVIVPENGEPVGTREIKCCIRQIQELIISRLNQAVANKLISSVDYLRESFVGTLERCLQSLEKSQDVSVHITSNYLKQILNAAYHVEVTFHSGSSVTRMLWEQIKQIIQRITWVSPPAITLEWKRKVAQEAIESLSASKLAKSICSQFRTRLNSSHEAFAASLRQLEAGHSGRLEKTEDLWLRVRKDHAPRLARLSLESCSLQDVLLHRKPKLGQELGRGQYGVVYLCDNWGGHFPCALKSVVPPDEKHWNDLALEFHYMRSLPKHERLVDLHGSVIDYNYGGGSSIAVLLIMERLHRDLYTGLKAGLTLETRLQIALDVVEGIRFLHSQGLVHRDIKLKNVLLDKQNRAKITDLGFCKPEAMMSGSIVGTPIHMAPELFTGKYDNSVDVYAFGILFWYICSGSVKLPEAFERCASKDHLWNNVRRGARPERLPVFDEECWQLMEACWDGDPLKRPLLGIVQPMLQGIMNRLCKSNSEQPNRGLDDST
UniProt Q9Y2I7, whole entry: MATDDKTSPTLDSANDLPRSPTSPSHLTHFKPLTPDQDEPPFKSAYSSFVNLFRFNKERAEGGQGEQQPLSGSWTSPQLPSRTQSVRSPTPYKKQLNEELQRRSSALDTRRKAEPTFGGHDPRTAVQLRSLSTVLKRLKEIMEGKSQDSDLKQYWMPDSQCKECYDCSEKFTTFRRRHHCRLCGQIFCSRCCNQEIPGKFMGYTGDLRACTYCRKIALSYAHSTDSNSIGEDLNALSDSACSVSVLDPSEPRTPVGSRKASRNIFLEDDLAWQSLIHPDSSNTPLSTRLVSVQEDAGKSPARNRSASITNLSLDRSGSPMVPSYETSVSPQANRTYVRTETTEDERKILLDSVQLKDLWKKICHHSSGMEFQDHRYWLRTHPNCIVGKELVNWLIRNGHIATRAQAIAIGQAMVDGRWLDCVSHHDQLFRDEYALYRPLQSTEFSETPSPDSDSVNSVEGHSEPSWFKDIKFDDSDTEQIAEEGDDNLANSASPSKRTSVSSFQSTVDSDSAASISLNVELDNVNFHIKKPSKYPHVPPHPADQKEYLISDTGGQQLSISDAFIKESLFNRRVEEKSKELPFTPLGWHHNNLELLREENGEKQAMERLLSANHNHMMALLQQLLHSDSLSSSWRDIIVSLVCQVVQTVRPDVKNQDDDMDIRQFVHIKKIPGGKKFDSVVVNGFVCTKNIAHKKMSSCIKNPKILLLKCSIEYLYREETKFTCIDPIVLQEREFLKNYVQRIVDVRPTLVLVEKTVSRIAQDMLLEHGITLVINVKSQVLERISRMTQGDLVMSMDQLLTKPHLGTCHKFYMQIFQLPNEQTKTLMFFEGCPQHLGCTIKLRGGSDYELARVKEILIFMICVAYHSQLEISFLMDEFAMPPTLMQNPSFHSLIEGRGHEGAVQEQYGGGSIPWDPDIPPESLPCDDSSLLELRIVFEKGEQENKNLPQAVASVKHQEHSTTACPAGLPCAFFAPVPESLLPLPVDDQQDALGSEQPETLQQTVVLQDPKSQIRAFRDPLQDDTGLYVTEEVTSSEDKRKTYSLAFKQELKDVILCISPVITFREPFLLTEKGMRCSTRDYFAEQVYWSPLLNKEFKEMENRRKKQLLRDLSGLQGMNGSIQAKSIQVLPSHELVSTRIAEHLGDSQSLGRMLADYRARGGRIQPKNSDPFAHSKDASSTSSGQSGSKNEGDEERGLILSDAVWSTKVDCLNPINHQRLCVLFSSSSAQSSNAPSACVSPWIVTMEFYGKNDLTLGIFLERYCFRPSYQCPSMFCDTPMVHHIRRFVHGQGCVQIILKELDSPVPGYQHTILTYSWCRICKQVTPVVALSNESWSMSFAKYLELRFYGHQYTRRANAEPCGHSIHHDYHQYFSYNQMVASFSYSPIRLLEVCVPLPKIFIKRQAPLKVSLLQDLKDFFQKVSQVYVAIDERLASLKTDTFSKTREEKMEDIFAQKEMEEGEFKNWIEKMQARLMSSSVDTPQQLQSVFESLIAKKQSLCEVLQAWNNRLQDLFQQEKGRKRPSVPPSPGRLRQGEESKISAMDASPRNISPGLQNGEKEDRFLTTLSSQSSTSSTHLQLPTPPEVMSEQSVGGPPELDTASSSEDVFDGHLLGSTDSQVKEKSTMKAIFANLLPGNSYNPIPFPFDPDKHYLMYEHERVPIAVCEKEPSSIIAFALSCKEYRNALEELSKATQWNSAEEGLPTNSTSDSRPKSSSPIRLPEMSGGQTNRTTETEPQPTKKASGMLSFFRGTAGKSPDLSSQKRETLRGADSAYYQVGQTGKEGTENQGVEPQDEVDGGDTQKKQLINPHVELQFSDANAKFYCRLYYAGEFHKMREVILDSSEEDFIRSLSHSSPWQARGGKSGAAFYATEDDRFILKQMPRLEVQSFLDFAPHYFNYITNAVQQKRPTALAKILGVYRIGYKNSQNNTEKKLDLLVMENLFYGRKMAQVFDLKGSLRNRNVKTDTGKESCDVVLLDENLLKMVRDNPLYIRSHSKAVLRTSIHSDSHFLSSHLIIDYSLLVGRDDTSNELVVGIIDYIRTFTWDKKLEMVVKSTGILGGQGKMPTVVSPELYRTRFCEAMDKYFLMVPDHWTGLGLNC
UniProt P45985, whole entry: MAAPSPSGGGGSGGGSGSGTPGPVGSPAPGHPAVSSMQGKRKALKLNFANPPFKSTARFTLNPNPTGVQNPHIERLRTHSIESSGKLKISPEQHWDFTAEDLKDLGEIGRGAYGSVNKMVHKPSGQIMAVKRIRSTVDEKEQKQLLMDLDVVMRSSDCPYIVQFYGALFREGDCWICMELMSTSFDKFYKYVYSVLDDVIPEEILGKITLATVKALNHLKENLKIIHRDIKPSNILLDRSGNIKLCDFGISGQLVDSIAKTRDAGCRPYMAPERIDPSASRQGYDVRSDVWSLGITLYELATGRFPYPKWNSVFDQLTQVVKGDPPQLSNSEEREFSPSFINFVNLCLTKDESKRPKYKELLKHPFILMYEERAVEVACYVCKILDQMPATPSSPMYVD

- YSK4 % control at 1000nM / DiscoverX PoC value (YSK4): 1.1 % control
- MYLK4 % control at 1000nM / DiscoverX PoC value (MYLK4): 2.4 % control
- PIP5K1C % control at 1000nM / DiscoverX PoC value (PIP5K1C): 0 % control
- RIPK5 % control at 1000nM / DiscoverX PoC value (RIPK5): 4.1 % control
- PIKFYVE % control at 1000nM / DiscoverX PoC value (PIKfyve): 0 % control
- PRKD3 (PKD3) % control at 1000nM / DiscoverX PoC value (PRKD3): 0 % control
- MEK4 (MKK4) % control at 1000nM / DiscoverX PoC value (MEK4): 3.5 % control
SMILES: CCC(O)(C#Cc1ccc2[nH]c3c(c2c1)-c1nc(N)ncc1CCC3)CC

— PMC10104807, “Modulation of tau tubulin kinases (TTBK1 and TTBK2) impacts ciliogenesis” (Scientific Reports, 2023)
